Experimental data as given in patent publication US11554172B2, “Phosphonate linkers and their use to facilitate cellular retention of compounds” (priority 2016, dated 2023).

Chains of the proteins cited; added tags and fusions are not shown. Lines headed by an entry give the natural chain unless they say otherwise; changes in a name come on top.
UniProt P04150: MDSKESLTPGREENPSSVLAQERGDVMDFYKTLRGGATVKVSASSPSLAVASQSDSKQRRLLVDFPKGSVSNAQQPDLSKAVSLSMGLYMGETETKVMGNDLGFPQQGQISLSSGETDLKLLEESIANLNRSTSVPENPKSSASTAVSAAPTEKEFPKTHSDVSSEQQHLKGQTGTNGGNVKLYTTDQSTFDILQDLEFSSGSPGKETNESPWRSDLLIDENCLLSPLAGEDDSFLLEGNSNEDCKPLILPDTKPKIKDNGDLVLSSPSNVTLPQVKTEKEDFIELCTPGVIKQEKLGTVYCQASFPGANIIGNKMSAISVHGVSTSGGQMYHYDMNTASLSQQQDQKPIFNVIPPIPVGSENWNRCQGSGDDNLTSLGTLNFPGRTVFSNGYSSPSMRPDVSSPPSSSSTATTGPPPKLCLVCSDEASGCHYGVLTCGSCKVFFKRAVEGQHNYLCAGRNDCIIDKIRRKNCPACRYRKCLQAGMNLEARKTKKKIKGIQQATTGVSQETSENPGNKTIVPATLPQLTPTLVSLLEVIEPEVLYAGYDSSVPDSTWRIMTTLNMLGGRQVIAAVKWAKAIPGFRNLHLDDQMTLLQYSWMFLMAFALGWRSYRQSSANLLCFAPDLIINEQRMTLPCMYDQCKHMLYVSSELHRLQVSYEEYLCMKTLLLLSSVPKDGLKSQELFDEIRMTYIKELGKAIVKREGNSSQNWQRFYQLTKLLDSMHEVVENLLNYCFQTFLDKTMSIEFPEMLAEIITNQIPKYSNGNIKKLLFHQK

Experiments:
[1] = target: GR full length protein (glucocorticoid receptor) (Homo sapiens (Human), UniProt P04150); assay: PolarScreen Glucocorticoid Receptor Competitor Assay (GR binding); settings: fluorescence polarisation competitor assay, 2-4 hours at room temperature; read-out: GR Bind IC50
[2] = tested on: MDCKII cells; assay: Apparent permeability in MDCKII cells; settings: Papp, average of A to B and B to A, 1 μM test compound, t=3 hr

Substance: (6-(3-((3aR,4aS,4bS,11aR,11bS,12S,13aS,13bS)-12-hydroxy-13b-(2-hydroxyacetyl)-11a,13a-dimethyl-2-propyl-4,4a,5,6,11,11a,11b,12,13,13a-decahydro-[1,3]dioxolo[4″,5″:3′,4′]cyclopenta[1′,2′:5,6]naphtho[,2-f]indazol-8(3aH,4bH,13bH)-yl)phenoxy)hexyl)phosphonic acid [Compound 27]
- IC50 [1]: 2 nM
- MDCK Permeability (cm × 10-6/sec) [2]: 1.8 cm × 10-6/sec
